Ki data for 4 compounds are collected here from BindingDB's records for US9120797.

By UniProt entry, the sequences of proteins in these tests, tags left out. Where a name states a change or a piece, a line headed by the entry shows the natural chain unless it says otherwise.
UniProt P35372, whole entry, looked up: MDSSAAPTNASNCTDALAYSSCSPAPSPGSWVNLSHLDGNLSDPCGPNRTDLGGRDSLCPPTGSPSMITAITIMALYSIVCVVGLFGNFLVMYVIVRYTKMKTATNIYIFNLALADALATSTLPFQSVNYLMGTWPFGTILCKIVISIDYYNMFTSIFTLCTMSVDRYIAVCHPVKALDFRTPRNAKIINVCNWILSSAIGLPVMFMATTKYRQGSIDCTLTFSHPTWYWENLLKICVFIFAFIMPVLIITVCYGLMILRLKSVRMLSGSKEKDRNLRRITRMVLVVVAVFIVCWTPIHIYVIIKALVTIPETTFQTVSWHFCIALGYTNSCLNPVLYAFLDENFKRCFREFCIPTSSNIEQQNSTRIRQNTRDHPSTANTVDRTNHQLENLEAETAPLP
UniProt P41146: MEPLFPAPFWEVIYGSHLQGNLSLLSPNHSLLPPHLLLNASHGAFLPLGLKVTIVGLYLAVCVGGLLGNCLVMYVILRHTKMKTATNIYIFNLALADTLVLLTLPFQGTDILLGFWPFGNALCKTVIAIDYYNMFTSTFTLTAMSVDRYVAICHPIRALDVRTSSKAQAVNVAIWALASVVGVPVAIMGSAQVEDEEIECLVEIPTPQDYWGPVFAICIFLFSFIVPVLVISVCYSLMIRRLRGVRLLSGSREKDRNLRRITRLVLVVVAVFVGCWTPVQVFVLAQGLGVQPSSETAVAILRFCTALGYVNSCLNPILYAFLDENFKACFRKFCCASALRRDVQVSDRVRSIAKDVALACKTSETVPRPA

For test [1], the target named is Mu-type opioid receptor (Homo sapiens, UniProt P35372). Kind of test: Binding Assay.
Test [2] addresses Nociceptin receptor (Homo sapiens, UniProt P41146). The experiment in a line: Binding Assay. The settings on record: pH 7.4.

Consider `CC(=O)N1CCc2c([nH]c3cc(F)ccc23)C12CCC(c1ccccc1)(N(C)C)CC2` (stereo not given), for which the Ki in test [1] is 1.7 nM.

In test [1], `CN(C)C1(c2cccc(F)c2)CCC2(CC1)OCCc1c2[nH]c2ccccc12` (stereo not given) came in with a Ki of 2.1 nM.

Consider `CN(C)C1(c2ccc(F)cc2)CCC2(CC1)c1sc3ccccc3c1CC[S+]2[O-]` (stereo not given), for which, in test [2], the affinity corresponds to a Ki of 62 nM.

Take `CN(C)C1(c2ccccc2)CCC2(CC1)NCCc1c2[nH]c2cc(F)ccc12` (stereo not given): the Ki in test [2] was 6.9 nM; in test [1] it was 17 nM.

What is called Ki is the dissociation constant of the complex between target and ligand, obtained from inhibition or displacement. Higher therefore signals lower affinity.
